For the test, the target named is T1, Nitric oxide synthase 3 (Bos taurus, UniProt P29473).
T1 sequence (P29473 whole entry): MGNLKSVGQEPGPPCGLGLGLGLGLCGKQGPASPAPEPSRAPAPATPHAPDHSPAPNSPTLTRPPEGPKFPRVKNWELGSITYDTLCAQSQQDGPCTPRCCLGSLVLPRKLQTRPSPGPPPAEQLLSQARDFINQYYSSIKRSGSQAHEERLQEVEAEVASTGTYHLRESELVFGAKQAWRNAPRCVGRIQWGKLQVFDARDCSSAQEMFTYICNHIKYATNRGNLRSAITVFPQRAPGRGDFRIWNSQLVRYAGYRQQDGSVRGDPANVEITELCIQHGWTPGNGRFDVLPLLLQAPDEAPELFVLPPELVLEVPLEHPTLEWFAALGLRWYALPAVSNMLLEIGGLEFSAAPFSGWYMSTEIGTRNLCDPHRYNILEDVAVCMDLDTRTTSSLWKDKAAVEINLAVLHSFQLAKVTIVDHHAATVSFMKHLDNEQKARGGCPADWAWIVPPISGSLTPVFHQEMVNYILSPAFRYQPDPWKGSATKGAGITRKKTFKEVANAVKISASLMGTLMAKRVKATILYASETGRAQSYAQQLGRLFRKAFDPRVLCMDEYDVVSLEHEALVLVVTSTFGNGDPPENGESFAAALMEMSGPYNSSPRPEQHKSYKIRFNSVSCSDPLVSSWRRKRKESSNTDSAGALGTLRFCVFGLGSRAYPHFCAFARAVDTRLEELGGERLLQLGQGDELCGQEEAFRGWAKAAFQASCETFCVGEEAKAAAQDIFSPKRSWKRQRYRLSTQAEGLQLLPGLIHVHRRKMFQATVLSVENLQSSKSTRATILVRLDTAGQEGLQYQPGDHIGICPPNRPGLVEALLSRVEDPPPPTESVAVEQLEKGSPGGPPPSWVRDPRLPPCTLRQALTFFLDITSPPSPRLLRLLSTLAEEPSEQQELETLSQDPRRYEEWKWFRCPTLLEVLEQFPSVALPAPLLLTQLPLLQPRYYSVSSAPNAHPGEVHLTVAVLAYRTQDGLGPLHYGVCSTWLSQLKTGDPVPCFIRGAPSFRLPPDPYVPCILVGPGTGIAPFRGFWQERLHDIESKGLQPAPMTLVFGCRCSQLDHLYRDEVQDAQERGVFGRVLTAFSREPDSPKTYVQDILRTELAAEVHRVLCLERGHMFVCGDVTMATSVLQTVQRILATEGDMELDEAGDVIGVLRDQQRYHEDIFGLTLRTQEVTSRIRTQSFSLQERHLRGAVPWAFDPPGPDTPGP
Briefly: Inhibition of full length N-terminal his-tagged bovine eNOS (2 to 1205 residues) expressed in Escherichia coli preincubated for 15 mins followed by NADPH addition and measured after 30 mins by HPLC analysis. In a few lines: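 Recombinant bovine eNOS in HEPES buffer with 2 mM CaCl2 plus the same cofactor mix as the iNOS assay (DTT, BSA, FMN, FAD, BH4, calmodulin, 10 μM L-Arg). Compound pre-incubated 15 min at 37 °C. NADPH-started reaction run 30 min at 37 °C, quenched with cold CH3CN. Read by OPA/NAC fluorescence HPLC. […] IC50 from seven concentrations in triplicate.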

Some results are limits rather than exact numbers.

For `CC(=N)NCc1cccc(CN)c1` [1400W], the half-maximal inhibitory concentration (IC50) (commonly the concentration at which inhibition is half-maximal) was above 50 µM.

(Values after ChEMBL document CHEMBL5321206, “New amidine-benzenesulfonamides as iNOS inhibitors for the therapy of the triple negative breast cancer” (Eur J Med Chem, 2023).)
